Reference: patent US20100028447A1, “Intranasal, Buccal, And Sublingual Administration Of Metanicotine Analogs” (TARGACEPT, INC., priority 2007, published 2010)

Assay: In situ brain perfusion, single time-point method

CC(C)NCC(O)COc1ccc(CC(N)=O)cc1 (stereo not shown) [Atenolol]
Vascular Space (Table 4 Treatment 2: Compound B perfused with references + MAO inhibitor Pargyline, Rat 1): 16.59 µL/g | Vascular Space (Table 4 Treatment 2: Compound B perfused with references + MAO inhibitor Pargyline, Rat 2): 13.69 µL/g | Vascular Space (Table 4 Treatment 2: Compound B perfused with references + MAO inhibitor Pargyline, Rat 3): 10.89 µL/g | Vascular Space (in all animals): ≤ 20 μL/g of brain tissue
